# Settings: anhydrous monomodal product, compared with a trihydrate form
substance,measurement,value
N-(8-[2-hydroxybenzoyl]-amino) caprylic acid sodium salt [anhydrous monomodal SNAC sodium salt],solubility in water,"good solubility in water, significantly higher than that of a trihydrate form"

# Reference: patent US10875826B2, “Process for the manufacture of SNAC (salcaprozate sodium)” (Emisphere Technologies, Inc., priority 2006, dated 2020)
